Experimental data as given in ChEMBL document CHEMBL3407483, “Novel 3-nitrotriazole-based amides and carbinols as bifunctional antichagasic agents” (J Med Chem, 2015).

Protein sequences, listed by entry. Tags and fused reporters are not part of them. Lines headed by an entry give the natural chain unless they say otherwise; changes in a name come on top.
UniProt Q7Z1V1: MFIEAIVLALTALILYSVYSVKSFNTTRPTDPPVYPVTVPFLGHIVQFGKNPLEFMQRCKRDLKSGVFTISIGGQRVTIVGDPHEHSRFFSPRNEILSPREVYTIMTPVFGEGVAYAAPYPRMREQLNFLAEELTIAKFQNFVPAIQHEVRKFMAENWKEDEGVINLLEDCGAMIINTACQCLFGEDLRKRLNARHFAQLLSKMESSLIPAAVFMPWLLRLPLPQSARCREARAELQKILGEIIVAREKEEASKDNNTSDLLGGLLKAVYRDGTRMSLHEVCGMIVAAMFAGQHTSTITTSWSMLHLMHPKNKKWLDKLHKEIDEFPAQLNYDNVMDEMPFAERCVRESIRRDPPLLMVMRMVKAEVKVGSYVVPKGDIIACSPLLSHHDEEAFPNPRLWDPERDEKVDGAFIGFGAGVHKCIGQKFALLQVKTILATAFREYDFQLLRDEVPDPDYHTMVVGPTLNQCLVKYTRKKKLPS

Experiments:
[1] = target: Sterol 14-alpha demethylase (Trypanosoma cruzi (strain CL Brener)) (UniProt Q7Z1V1); assay: Inhibition of recombinant full-length Trypanosoma cruzi CYP51 assessed as molar ratio of inhibitor to enzyme which causes 2 fold decrease in enzyme activity in 5 mins by HPLC analysis
[2] = target: Sterol 14-alpha demethylase (Trypanosoma cruzi (strain CL Brener)) (UniProt Q7Z1V1); assay: Inhibition of recombinant full-length Trypanosoma cruzi CYP51 assessed as molar ratio of inhibitor to enzyme which causes 2 fold decrease in enzyme activity in 1 hr by HPLC analysis
[3] = Selectivity index, ratio of IC50 for rat L6 cells to IC50 for amastigote stage of Trypanosoma cruzi Tulahuen C4 infected in rat L6 cells; type: toxicity, cell-based; conditions: read-out: Ratio IC50
[4] = Selectivity index, ratio of IC50 for rat L6 cells to IC50 for trypomastigote stage of Trypanosoma brucei rhodesiense STIB 900; type: toxicity, cell-based; conditions: read-out: Ratio IC50

| SMILES | Ratio [1] | Ratio [2] | selectivity ratio [3] | selectivity ratio [4] |
| --- | --- | --- | --- | --- |
| N#Cc1ccc(-c2ccc(NC(=O)Cn3cnc([N+](=O)[O-])n3)cc2)cc1 | 4 | 36 |  |  |
| O=[N+]([O-])c1ncn(CC(O)(Cn2cncn2)c2ccc(F)cc2F)n1 (stereo not drawn) | 5 | 32 |  |  |
| O=[N+]([O-])c1ncn(CC(O)(Cn2cncn2)c2ccc(-c3ccccc3)cc2)n1 (stereo not drawn) | < 1 | 3 |  |  |
| CC1(c2ccc(-n3ccnc3)cc2)CO1 (stereo not drawn) |  |  | 1.48 | 3.64 |
